For 30 molecules, inhibition results are on record in PubChem BioAssay AID463212 (Sanford-Burnham Center for Chemical Genomics, 2010).

The list shows a part of the results, in another mix than the full data. Some salts or complexes appear as unconnected parts, following the source record. Active and inactive are the calls of the source.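 How the source made its calls: active means growth inhibition of the mutant yeast at or above 50%; inactive means the rest.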

The assay in a line: growth inhibitors of tim23-1 mutant yeast, primary screen, luminescence, uHTS (AID 463212).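 Further: temperature-sensitive mutant grown at 25 °C; plate controls were DMSO-treated mutant yeast for no effect and medium wells lacking yeast for full effect.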 The conditions noted are these: S. cerevisiae tim23-1 growth, BacTiter-Glo luminescence, 24 h; at 20 µM; hits give high values.
Broadly, the inhibition is the change of the read-out against control, counted positive when it falls. As for `CCc1ccc(OP(C)(=O)O)cc1`, the inhibition is inactive: -3.15%. In the case of `CP(=O)(Nc1ccccn1)Oc1ccccc1` (stereo not given), the inhibition was inactive: 3.68%.

As to `COc1ccccc1OP(C)(=O)Nc1ccc(C)cc1C` (stereo not given), the inhibition was inactive: 15.6%. For the molecule `O=[N+]([O-])c1cc([N+](=O)[O-])c(Nc2ccccn2)c([N+](=O)[O-])c1`, the inhibition is active: 70.1%. As for `Cc1c(NP(C)(=O)Oc2ccc(C(C)C)cc2)c(=O)n(-c2ccccc2)n1C` (stereo not given), the inhibition was inactive: 7.24%. For the molecule `COc1ccc(OP(C)(=O)Nc2ccccc2Br)cc1` (stereo not given), the inhibition was inactive: -11.1%. To `COc1ccccc1OP(C)(=O)Nc1ccc(C)c(C)c1` (stereo not given) belongs inactive: 1.36%.

`Cc1cc(C)cc(OP(C)(=O)Nc2cccc(C(F)(F)F)c2)c1` (stereo not given): the inhibition was inactive: 8.99%. To `CP(=O)(OCCOc1ccccc1)OCCOc1ccccc1` belongs inactive: 0.995%; to `CP(=O)(Nc1ccc(Cl)cc1Cl)Oc1ccccc1` (stereo not given), inactive: -3.67%.

Take `Cc1nc2ccc3ccccc3c2o1.O=[N+]([O-])c1cc([N+](=O)[O-])c(O)c([N+](=O)[O-])c1`: the inhibition was inactive: 24.2%. Take `COc1ccc(OP(C)(=O)Nc2ccc(SC(F)(F)F)cc2)cc1` (stereo not given): the inhibition is inactive: 36.6%.

`CCOC(=O)c1ccc(NP(C)(=O)Oc2ccc(F)cc2)cc1` (stereo not given): the inhibition was inactive: 18.8%. For the molecule `CCCCCOc1ccc(NP(C)(=O)Oc2ccc(Cl)cc2Cl)cc1` (stereo not given), the inhibition was inactive: 43%.

On to `O=[N+]([O-])c1cc([N+](=O)[O-])c(OC2CCCCC2O)c([N+](=O)[O-])c1` (stereo not given), for which the inhibition is inactive: 14.6%. To `CP(=O)(Nc1ccccc1)Oc1ccc(F)cc1` (stereo not given) belongs inactive: -6.67%; to `CCN(CC)CCCOC(=O)C(O)(c1ccccc1)C1CCCCC1` (stereo not given), inactive: -6.03%. With `CC(C)c1ccc(OP(C)(=O)Nc2ccc(SC(F)(F)F)cc2)cc1` (stereo not given) the figure was inactive: 28.8%. To `CP(=O)(Nc1ccccc1F)Oc1ccccc1` (stereo not given) belongs inactive: 10.3%. As for `COc1ccc2c(c1O)-c1c(O)c(OC)cc3c1[C@H](C2)[N+](C)(C)CC3.O=[N+]([O-])c1cc([N+](=O)[O-])c([O-])c([N+](=O)[O-])c1[O-]`, the inhibition was inactive: 8.93%. For the molecule `O=C(OCCN1CCN(CCOCc2ccccc2)CC1)C(O)(c1ccccc1)c1ccccc1`, the inhibition was inactive: 2.78%.

`O=C(OC1CN2CCC1CC2)c1ccc([N+](=O)[O-])cc1` (stereo not given): the inhibition was inactive: -292%. `CCOP(C)(=S)SCC(=O)NC(C)(CC)C(=O)O` (stereo not given): the inhibition is inactive: 29.3%. With `CP(=O)(Nc1ccc(SC(F)(F)F)cc1)Oc1ccc(F)cc1` (stereo not given) the figure was inactive: 21%; with `Cc1ccccc1NP(C)(=O)Nc1ccccc1C`, inactive: 10.1%. In the case of `CP(=O)(Nc1ccc2c(c1)OCCO2)Oc1ccccc1` (stereo not given), the inhibition is inactive: 16.9%.

Turning to `COc1ccc(NP(C)(=O)Oc2ccccc2OC)cc1` (stereo not given), the inhibition was inactive: -3.88%. To `CN(C)CCOC(=O)C(O)(c1ccccc1)C1CCCCC1` (stereo not given) belongs inactive: -10.4%; to `COc1ccc(OP(C)(=O)Nc2cccc(Br)c2)cc1` (stereo not given), inactive: 14.5%; to `O=[N+]([O-])c1cc([N+](=O)[O-])c(NCC2CCS(=O)(=O)C2)c([N+](=O)[O-])c1` (stereo not given), inactive: 16.8%.
